The results in this text go back to patent publication US9499482B2, “Pyrrolone or pyrrolidinone melanin concentrating hormone receptor-1 antagonists” (BRISTOL-MYERS SQUIBB COMPANY, priority 2012, dated 2016).

Sequences of proteins named here, by UniProt entry; tags and fusion partners are left off.
UniProt Q99705, whole entry E4Q/A5T: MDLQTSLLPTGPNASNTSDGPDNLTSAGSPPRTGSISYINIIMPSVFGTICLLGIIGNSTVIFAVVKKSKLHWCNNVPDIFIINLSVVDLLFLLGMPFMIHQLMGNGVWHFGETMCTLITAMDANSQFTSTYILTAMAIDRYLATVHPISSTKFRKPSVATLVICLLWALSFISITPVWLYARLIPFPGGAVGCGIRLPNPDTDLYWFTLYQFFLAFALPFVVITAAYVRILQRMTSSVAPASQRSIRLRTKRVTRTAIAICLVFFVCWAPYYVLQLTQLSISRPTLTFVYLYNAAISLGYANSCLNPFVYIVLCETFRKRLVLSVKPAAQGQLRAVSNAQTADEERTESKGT

pKi: −log10 of the molar value. Counter-ions that a name gives are not always drawn.

One assay addresses human melanin concentrating hormone receptor (MCHR1), mutated (E4Q, A5T) hMCHR1 (Homo sapiens (Human), UniProt Q99705, A5T/E4Q). Kind of assay: Radioligand binding assay for assessment of MCHR1 activity ([125I]-MCH competition, HEK-293 membranes). To be noted: Table G.
`COc1cc(N2CC=C(Oc3ccc(-c4ccccc4)cc3)C2=O)ccc1OCCN1CCCC1` [Example 213] gave a pKi of 9.52.
The compound `COc1cc(N2CC=C(Oc3ccc(-c4ccccc4)cc3)C2=O)ccc1OCCN1CCC[C@H]1CO` [Example 214] gave a negative-log Ki (pKi) of 9.40.
On the same count and under the same terms, the result for `COc1cc(N2CC=C(Oc3ccc(-c4ccccc4)cc3)C2=O)ccc1OCCN1CCC[C@@H]1CO` [Example 215] reads 9.00.
Same read-out and setting: the result for `COc1cc(N2CC=C(Oc3ccc(-c4ccccc4)cc3)C2=O)ccc1OCCN1CCCCC1` [Example 216] reads 9.40; that for `COc1cc(N2CC=C(Oc3ccc(-c4ccccc4)cc3)C2=O)ccc1OCCN1CC(NC(=O)OC(C)(C)C)C1` [Example 218], 9.15; that for `COc1cc(N2CC=C(Oc3ccc(-c4ccccc4)cc3)C2=O)ccc1OCCN1CC(OC)C1` [Example 219], 9.15.

The assay is the same for the next values; noted with them: Table I.
As to `O=C1C(Oc2ccc(C3CC3)cc2)=CCN1[C@H]1CC[C@H](OCCN2CCC[C@H]2CO)CC1` [Example 247], the pKi is 7.64.
The same measure, in the same setting: the result for `O=C1C(Oc2ccc(C3CC3)cc2)=CCN1[C@H]1CC[C@H](OCCN2CCC2)CC1` [Example 249] reads 6.10; that for `O=C1C(Oc2ccc(C3CC3)cc2)=CCN1[C@H]1CC[C@H](OCCN2CCC(F)(F)CC2)CC1` [Example 250], 7.29.

The same assay, now with this note: Table J.
In turn, `CC1(O)CN(CCn2ncc3cc(N4CC=C(Oc5ccc(C6CC6)cc5)C4=O)ccc32)C1` [Example 253] showed a pKi of 8.42.
Turning to `O=C1C(Oc2ccc(C3CC3)cc2)=CCN1c1ccc2c(cnn2CCN2CC[C@@H](O)C2)c1` [Example 254], the negative logarithm of the Ki (pKi) is 9.00.
For the compound `COC1CN(CCn2ncc3cc(N4CC=C(Oc5ccc(C6CC6)cc5)C4=O)ccc32)C1` [Example 255], the negative logarithm of the Ki (pKi) was 8.55.
The compound `O=C1C(Oc2ccc(C3CC3)cc2)=CCN1c1ccc2c(cnn2CCN2CC(O)C2)c1` [Example 256] showed a pKi of 8.72.
Still for that read-out and setting: then `O=C1C(Oc2ccc(C3CC3)cc2)=CCN1c1ccc2c(cnn2CCN2CCC[C@H](O)C2)c1` [Example 257], with 9.10.
Consider `O=C1C(Oc2ccc(C3CC3)cc2)=CCN1c1ccc2c(cnn2CCN2CCC(F)(F)CC2)c1` [Example 258], for which the negative logarithm of the Ki (pKi) is 8.02.
On to `O=C1C(Oc2ccc(C3CC3)cc2)=CCN1c1ccc2c(cnn2CCN2CCC2)c1` [Example 259], for which the pKi is 8.92.
Same read-out and setting: then `O=C1C(Oc2ccc(C3CC3)cc2)=CCN1c1ccc2c(cnn2CCN2CCC[C@@H]2CO)c1` [Example 260], with 9.22; and `O=C1C(Oc2ccc(C3CC3)cc2)=CCN1c1ccc2c(cnn2CCN2CCC[C@H]2CO)c1` [Example 261], with 8.77; and `O=C1C(Oc2ccc(C3CC3)cc2)=CCN1c1ccc2c(cnn2CCN2CC[C@@H](F)C2)c1` [Example 262], with 8.96.
On the same count and under the same terms, then `O=C1C(Oc2ccc(C3CC3)cc2)=CCN1c1ccc2c(cnn2CCN2CC[C@H](F)C2)c1` [Example 263], with 8.82.
Still for that read-out and setting: the result for `O=C1C(Oc2ccc(C3CC3)cc2)=CCN1c1ccc2c(cnn2CCN2CC[C@H](O)C2)c1` [Example 264] reads 9.10; that for `O=C1C(Oc2ccc(C3CC3)cc2)=CCN1c1ccc2c(cnn2CCN2CCC(F)(F)C2)c1` [Example 265], 7.23.
In turn, `O=C1C(Oc2ccc(C3CC3)cc2)=CCN1c1ccc2c(cnn2CCN2CC=CC2)c1` [Example 266] had a negative-log Ki (pKi) of 9.15.
Still for that read-out and setting: the result for `O=C1CN(CCn2ncc3cc(N4CC=C(Oc5ccc(C6CC6)cc5)C4=O)ccc32)CCN1` [Example 267] reads 6.93.

Staying with this assay, now noted: Table L.
With `COc1cc(N2CC=C(Oc3ccc(C4CC4)cc3)C2=O)ccc1CN1CC(S(C)(=O)=O)C1` [Example 273], the pKi is 6.72.
The same measure, in the same setting: the result for `COc1cc(N2CC=C(Oc3ccc(C4CC4)cc3)C2=O)ccc1CN1CC(O)(C(F)(F)F)C1` [Example 275] reads 6.72; that for `COc1cc(N2CC=C(Oc3ccc(C4CC4)cc3)C2=O)ccc1CN1CCNC(=O)C1` [Example 276], 6.40.
The compound `COc1cc(N2CC=C(Oc3ccc(C4CC4)cc3)C2=O)ccc1CN1CC(C)(O)C1` [Example 277] gave a negative logarithm of the Ki (pKi) of 6.81.
On to `COc1cc(N2CC=C(Oc3ccc(C4CC4)cc3)C2=O)ccc1CN1CC(O)(C2CC2)C1` [Example 278], for which the pKi is 7.40.
In turn, `COc1cc(N2CC=C(Oc3ccc(C4CC4)cc3)C2=O)ccc1CN1CC[C@@H](O)C1` [Example 279] had a pKi of 6.63.
Same read-out and setting: then `COc1cc(N2CC=C(Oc3ccc(C4CC4)cc3)C2=O)ccc1CN1CC[C@H](O)C1` [Example 280], with 6.47; and `COc1cc(N2CC=C(Oc3ccc(C4CC4)cc3)C2=O)ccc1CN1CC[C@@H](F)C1` [Example 281], with 6.59.

The assay is the same for the next values; noted with them: Table N.
`COc1cc(N2CC=C(Oc3ccc(C4CC4)cc3)C2=O)ccc1O[C@@H]1CCNC1` [Example 298, (R)-3-(4-Cyclopropylphenoxy)-1-(3-methoxy-4-(pyrrolidin-3-yloxy)phenyl)-1H-pyrrol-2(5H)-one. hydrochloride] gave a pKi of 8.22.

Staying with this assay, now noted: membranes from HEK-293 cells expressing mutated (E4Q, A5T) hMCHR1; 0.06-0.1 nM [Phe13,[125I]Tyr19]-MCH.
In turn, `COC1CN(CCOc2ccc(N3CC=C(Oc4ccc(C5CC5)cc4)C3=O)cc2OC(F)F)C1` [Example 189] showed a negative-log Ki (pKi) of 9.22.
As to `CC1(O)CN(CCOc2ccc(N3CC=C(Oc4ccc(C5CC5)cc4)C3=O)cc2OC(F)F)C1` [Example 190], the pKi was 9.22.
Turning to `O=C1C(Oc2ccc(C3CC3)cc2)=CCN1c1ccc(OCCN2CC(O)C2)c(Br)c1` [Example 192], the negative logarithm of the Ki (pKi) is 9.05.
Same read-out and setting: then `CC1(O)CN(CCOc2ccc(N3CC=C(Oc4ccc(C5CC5)cc4)C3=O)cc2Br)C1` [Example 193], with 9.22; and `O=C1C(Oc2ccc(C3CC3)cc2)=CCN1c1ccc(OCCN2CCCC2)c(C2CC2)c1` [Example 205, 1-(3-Cyclopropyl-4-(2-(pyrrolidin-1-yl)ethoxy)phenyl)-3-(4-cyclopropylphenoxy)-1H-pyrrol-2(5H)-one], with 9.22; and `O=C1C(Oc2ccc(C3CC3)cc2)=CCN1c1ccc(OCCN2CCOCC2)c(C2CC2)c1` [Example 206], with 8.26.
`O=C1C(Oc2ccc(C3CC3)cc2)=CCN1c1ccc(OCCN2CC(O)C2)c(C2CC2)c1` [Example 207]: the negative logarithm of the Ki (pKi) was 9.05.
Take `O=C1C(Oc2ccc(C3CC3)cc2)=CCN1c1ccc(OCCN2CC[C@@H](O)C2)c(C2CC2)c1` [Example 208]: the negative logarithm of the Ki (pKi) was 8.77.
The compound `CC1(O)CN(CCOc2ccc(N3CC=C(Oc4ccc(C5CC5)cc4)C3=O)cc2C2CC2)C1` [Example 209] showed a pKi of 8.92.
Take `CC(C)(C)OC(=O)NC1CN(CCOc2ccc(N3CC=C(Oc4ccc(C5CC5)cc4)C3=O)cc2C2CC2)C1` [Example 210]: the pKi was 9.05.
On the same count and under the same terms, then `O=C1C(Oc2ccc(C3CC3)cc2)=CCN1[C@H]1C[C@@H](OCCN2CCCC2)C1` [Example 232, 3-(4-Cyclopropylphenoxy)-1-(cis-3-(2-(pyrrolidin-1-yl)ethoxy)cyclobutyl)-1H-pyrrol-2(5H)-one], with 6.03.
`O=C1C(Oc2ccc(C3CC3)cc2)=CCN1[C@H]1C[C@@H](OCCN2CCOCC2)C1` [Example 233] had a pKi of 5.75.
Still for that read-out and setting: the result for `O=C1C(Oc2ccc(C3CC3)cc2)=CCN1[C@H]1C[C@@H](OCCN2CC(O)(C3CC3)C2)C1` [Example 234] reads 6.18.
On to `COC1CN(CCO[C@H]2C[C@@H](N3CC=C(Oc4ccc(C5CC5)cc4)C3=O)C2)C1` [Example 237], for which the negative-log Ki (pKi) was 6.47.
The same measure, in the same setting: then `O=C1C(Oc2ccc(C3CC3)cc2)=CCN1[C@H]1C[C@@H](OCCN2CC[C@H](O)C2)C1` [Example 238], with 6.89; and `CC1(O)CN(CCO[C@H]2C[C@@H](N3CC=C(Oc4ccc(C5CC5)cc4)C3=O)C2)C1` [Example 240], with 5.52; and `O=C1C(Oc2ccc(C3CC3)cc2)=CCN1[C@H]1C[C@@H](OCCN2CC[C@@H](O)C2)C1` [Example 241], with 5.63.
Still for that read-out and setting: the result for `O=C1C(Oc2ccc(C3CC3)cc2)=CCN1c1cnn(CCN2CC(O)C2)c1` [Example 268, 3-(4-cyclopropylphenoxy)-1-(1-(2-(3-hydroxyazetidin-1-yl)ethyl)-1H-pyrazol-4-yl)-1H-pyrrol-2(5H)-one] reads 6.03.
The same measure, in the same setting: the result for `CS(=O)(=O)C1CN(CCn2cc(N3CC=C(Oc4ccc(C5CC5)cc4)C3=O)cn2)C1` [Example 269] reads 5.85; that for `COC1CN(CCn2cc(N3CC=C(Oc4ccc(C5CC5)cc4)C3=O)cn2)C1` [Example 270], 6.40.
